The record followed here is ChEMBL document CHEMBL1932952, “Synthesis and biochemical analysis of 2,2,3,3,4,4,5,5,6,6,7,7-dodecafluoro-N-hydroxy-octanediamides as inhibitors of human histone deacetylases” (Bioorg Med Chem, 2012).

For orientation: Kd means a measure of binding affinity in units of concentration.

In this assay the target is T1, Histone deacetylase 8 (Homo sapiens, UniProt Q9BY41).
T1 sequence (Q9BY41 whole entry): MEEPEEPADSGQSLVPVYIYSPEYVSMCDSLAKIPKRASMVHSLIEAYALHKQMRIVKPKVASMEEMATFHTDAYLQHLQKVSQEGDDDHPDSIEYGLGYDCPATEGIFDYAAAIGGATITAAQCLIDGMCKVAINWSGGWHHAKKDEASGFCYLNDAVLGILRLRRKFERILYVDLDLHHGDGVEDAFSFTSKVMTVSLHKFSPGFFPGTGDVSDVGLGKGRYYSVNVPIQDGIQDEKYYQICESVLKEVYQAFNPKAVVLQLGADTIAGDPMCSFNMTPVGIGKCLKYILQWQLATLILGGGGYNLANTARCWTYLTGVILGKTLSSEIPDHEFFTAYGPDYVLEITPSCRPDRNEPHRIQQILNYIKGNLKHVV
Nature of the assay: Inhibition of recombinant human HDAC8 using Boc-L-Lys(trifluoroacetyl)-MCA as substrate by fluorogenic enzymatic assay.

In the case of `O=C(CCCCCCC(=O)Nc1ccccc1)NO` [VORINOSTAT], the Kd came to 2.9 µM.
